Laboratory results published in patent US5587490A, “Method of inactivation of viral and bacterial blood contaminants” (Credit Managers Association of California, priority 1993, dated 1996).

System: phi 6 phage
Test: Inactivation of phi 6 in plasma with molybdenum X-ray radiation, plaque method
Format: cell-based
Settings: hydrated and lyophilized plasma, 1%, 353 kr; in words

CCCCOP(=O)(OCCCC)OCCCC
viral inactivation with molybdenum X-ray radiation on addition of organic solvent or detergent: substantially enhanced
